Among the data in patent publication US20080027117A1, “Antifungal Azole Derivatives Having a Fluorovinyl Moiety and Process for the Preparation Thereof” (KOREA RESERACH INSTIITUTE OF CHEMICAL TECHNOLOGY, priority 2003, published 2008) are IC50 values, retold here.

Protein sequences, listed by entry. Tags and fused reporters are not part of them.
UniProt P11712, whole entry: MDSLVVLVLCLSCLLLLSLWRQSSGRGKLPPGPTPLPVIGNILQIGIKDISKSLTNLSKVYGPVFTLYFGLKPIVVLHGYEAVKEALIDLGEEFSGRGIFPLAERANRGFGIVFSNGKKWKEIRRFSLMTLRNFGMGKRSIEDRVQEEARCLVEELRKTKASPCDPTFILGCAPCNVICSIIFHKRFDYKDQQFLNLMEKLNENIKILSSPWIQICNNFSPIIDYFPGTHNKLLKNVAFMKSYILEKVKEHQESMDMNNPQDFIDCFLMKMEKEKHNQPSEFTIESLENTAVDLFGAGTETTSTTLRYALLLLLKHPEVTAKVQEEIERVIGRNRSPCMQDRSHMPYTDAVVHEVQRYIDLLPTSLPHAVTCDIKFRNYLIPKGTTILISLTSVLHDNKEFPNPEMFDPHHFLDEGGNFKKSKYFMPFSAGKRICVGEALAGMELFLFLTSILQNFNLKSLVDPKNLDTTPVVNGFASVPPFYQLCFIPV
UniProt P33261, whole entry: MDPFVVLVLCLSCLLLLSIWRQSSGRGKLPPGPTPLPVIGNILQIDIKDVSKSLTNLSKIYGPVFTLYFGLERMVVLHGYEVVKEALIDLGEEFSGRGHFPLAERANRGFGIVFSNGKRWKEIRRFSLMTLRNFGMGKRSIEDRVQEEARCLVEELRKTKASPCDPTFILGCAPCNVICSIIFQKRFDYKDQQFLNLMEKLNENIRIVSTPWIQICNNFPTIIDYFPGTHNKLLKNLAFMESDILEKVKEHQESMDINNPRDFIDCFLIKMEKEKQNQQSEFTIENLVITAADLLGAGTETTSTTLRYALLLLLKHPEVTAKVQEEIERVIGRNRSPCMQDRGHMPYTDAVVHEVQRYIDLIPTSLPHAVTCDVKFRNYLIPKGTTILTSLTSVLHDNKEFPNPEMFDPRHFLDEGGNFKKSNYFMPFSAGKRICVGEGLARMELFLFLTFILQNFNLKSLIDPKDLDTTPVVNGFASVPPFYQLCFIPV

One experiment has as its target CYP 2C9 (Homo sapiens, UniProt P11712). The experiment in a line: Hepatic toxicity: Diclofenac 4′-hydroxylase in human hepatic microsomes. As for the experimental part:
(§1) After incubating at 37° C. for 20 min, 200 μl of each resulting solution was mixed with 100 μl of acetonitrile, and analyzed with LC-MS (LC column: Luna2 C8, 2×100 mm, flow velocity: 0.2 ml/min, MS system: Quattro LC (micromass)) using a 5% MeOH aqueous solution containing 0.1% formic acid as an eluent.

Another experiment deals with CYP 2C19 (Homo sapiens, UniProt P33261). Put plainly: Hepatic toxicity: Mephenytoin 4-hydroxylase in human hepatic microsomes. As for the experimental part: as §1

Each structure is given as a SMILES string.

What is called IC50 is the midpoint of a concentration-inhibition curve.

Regarding `OC(Cn1cncn1)(Cn1cncn1)c1ccc(F)cc1F` [Fluconazole, reference compound], the values for the IC50 at CYP 2C9 and at CYP 2C19 were 46.4 µM and 7.1 µM, respectively.
